ChEMBL document CHEMBL5338774, “Quinazoline-2-Carboxamides as Selective PET Radiotracers for Matrix Metalloproteinase-13 Imaging in Atherosclerosis” (J Med Chem, 2023)

The chains behind the UniProt entries cited, without tags or fusion partners. Where a name states a change or a piece, a line headed by the entry shows the natural chain unless it says otherwise.
UniProt P09238: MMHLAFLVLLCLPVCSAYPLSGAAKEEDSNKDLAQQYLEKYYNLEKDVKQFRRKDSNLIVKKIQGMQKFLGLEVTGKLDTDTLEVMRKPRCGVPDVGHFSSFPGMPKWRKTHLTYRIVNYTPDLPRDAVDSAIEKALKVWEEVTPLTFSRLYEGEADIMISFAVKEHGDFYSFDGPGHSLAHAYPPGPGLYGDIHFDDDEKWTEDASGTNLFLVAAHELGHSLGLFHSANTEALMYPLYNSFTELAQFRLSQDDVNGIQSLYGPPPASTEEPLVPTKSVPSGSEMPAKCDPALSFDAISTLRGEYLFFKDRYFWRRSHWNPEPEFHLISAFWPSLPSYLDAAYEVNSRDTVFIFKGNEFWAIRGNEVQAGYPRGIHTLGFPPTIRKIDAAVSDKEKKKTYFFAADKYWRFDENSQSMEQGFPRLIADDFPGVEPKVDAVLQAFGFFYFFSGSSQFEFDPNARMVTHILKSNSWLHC

Target: Stromelysin-2 (Homo sapiens, UniProt P09238)
Experiment: Inhibition of human recombinant MMP-10 using […]-Pro-Lys-Pro-Val-Glu-Nval-Trp-Arg-Lys(Dnp)-NH2 as substrate preincubated for 30 mins followed by substrate addition by fluorescence based analysis

IC50: 69 nM
SMILES: CNC(=O)[C@@H](NC(=O)[C@H](CC(C)C)[C@H](O)C(=O)NO)C(C)(C)C
